Measurements as given in PubChem BioAssay AID878 (University of Pittsburgh Molecular Library Screening Center, 2007).
This is a selection; strong and weak results do not stand in their true shares. Calls of active or inactive are those of the source.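 Rule for the calls: active = activation of at least 50% relative to the plate's high and low controls in the primary single-dose screen; inactive = activation below 50%.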

test: compounds producing H2O2 with reducing agent – biochemical, NIH compound library profiling, artefact control for MLSCN library redox annotation, primary screen (AID 878); conditions: DTT-dependent redox cycling H2O2, phenol red/HRP absorbance; at 10 µM; stronger effect = higher value; 100% = 100 µM peroxide control, 0% = buffer;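 note: compound incubated with DTT at 0.8 mM final as the reducing agent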

Structure (SMILES)	activation
COc1ccccc1OP(=O)(Nc1ccc(C)cn1)Oc1ccccc1OC	inactive: -0.29%
CN1CCCC(OC(=O)C(c2ccccc2)c2ccccc2)C1 (centres undefined)	inactive: -4.24%
Clc1ccc(Cl)c(NC2=NCC(CBr)S2)c1 (centres undefined)	inactive: 0.96%
NC(=O)c1cc([N+](=O)[O-])cc([N+](=O)[O-])c1N	inactive: -0.36%
Cc1ccc(N/C(=N/P(=O)(N2CCOCC2)N2CCOCC2)N2CCOCC2)cc1	inactive: -0.28%
CC(C)CC(=O)NC(Sc1ccc(Cl)cc1)C(Cl)(Cl)Cl (centres undefined)	inactive: 2.05%
Oc1ccccc1CNc1ccccn1	inactive: 0.08%
O=C(NC(Sc1ccncn1)C(Cl)(Cl)Cl)c1ccccc1 (centres undefined)	inactive: -0.17%
Cc1c2non([O-])c-2c(C)[n+](=O)[n+]1[O-]	inactive: -0.71%
Cc1cc(SC(NC(=O)c2ccc(F)cc2)C(Cl)(Cl)Cl)ncn1 (centres undefined)	inactive: 0.41%
CCOP(=O)(Nc1ccccc1)OCC	inactive: -11%
CCN(N=Nc1nonc1N)c1nonc1N	inactive: -0.13%
O=[N+]([O-])c1ncn(CCn2ncnc2[N+](=O)[O-])n1	inactive: -0.38%
O=[N+]([O-])c1cccc2n[nH]nc12	inactive: -0.28%
CC(=O)N1C2C3N(C(C)=O)C1C1N(C(C)=O)C(C(N1C(C)=O)N3C(C)=O)N2C(C)=O	inactive: 8.68%
Cc1ccc(NP(=O)(Oc2ccccc2)Oc2ccccc2)nc1	inactive: -1.98%
CCc1nc2c(n1)c1c(non1O)c1c2no[n+]1[O-]	inactive: 0.16%
O=[N+]([O-])c1cc([N+](=O)[O-])c(CCNc2ccccc2)c([N+](=O)[O-])c1	inactive: -0.99%
COc1ccc(C2=NCC(CBr)S2)cc1 (centres undefined)	inactive: 9.98%
CC(C)=N/N=C(\N)N[N+](=O)[O-]	inactive: -0.33%
CN(C)C(=O)OCCc1n(C)cc[n+]1C	inactive: -0.07%
CC1CCN(C(=O)Oc2c(Cl)cc(Cl)c3cccnc23)CC1	inactive: 0.97%
CCN(/C(=N/P(=O)(N1CCOCC1)N1CCOCC1)N1CCOCC1)c1ccc(OC)cc1	inactive: 0.35%
c1nnnn1CCn1cnnn1	inactive: -0.41%
CC(C)C(=O)NC(Sc1ccccc1)C(Cl)(Cl)Cl (centres undefined)	inactive: 0.43%
O=P(Nc1nccs1)(c1ccccc1)c1ccccc1	inactive: -0.06%
O=P(Nc1ccccn1)(c1ccc(Br)cc1)c1ccc(Br)cc1	inactive: 0.35%

Structure (SMILES)	activation
C(Cc1nn[nH]n1)Cc1nn[nH]n1	inactive: -0.21%
O=C(OC1CN2CCC1CC2)c1cccc(Cl)c1 (centres undefined)	inactive: -1.7%
CC(=O)NC(SC(=S)N(C)C)C(Cl)(Cl)Cl (centres undefined)	inactive: -0.01%
CCNC(=S)/N=C(\N)N[N+](=O)[O-]	inactive: -0.13%
O=C(NC1CCS(=O)(=O)C1)NP(=S)(Oc1ccccc1)Oc1ccccc1 (centres undefined)	inactive: 0.01%
c1ccc(-c2nn[nH]n2)c(-c2nn[nH]n2)c1	inactive: -1.2%
CCOC(=O)NC(Sc1ccccc1)C(Cl)(Cl)Cl (centres undefined)	inactive: -4.95%
O=c1c2cc([N+](=O)[O-])ccc2[nH]c2c([N+](=O)[O-])cc([N+](=O)[O-])cc12	inactive: -1.11%
COC(=O)c1cc2c(s1)N=C(c1ccccc1)N(C)P2(=O)N1CCOCC1 (centres undefined)	inactive: 0.76%
Cc1ccc(OP(=O)(Nc2ccccn2)Oc2ccc(C)cc2)cc1	inactive: -0.21%
CC(=O)NC(SC(=S)N(CC(C)C)CC(C)C)C(Cl)(Cl)Cl (centres undefined)	inactive: -0.16%
CCC(=O)N1C2C3N(C(=O)CC)C1C1N(C(=O)CC)C(C(N1C(=O)CC)N3C(=O)CC)N2C(=O)CC	inactive: 19.3%
CC(C)(C)C(=O)NC(Sc1ccccc1)C(Cl)(Cl)Cl (centres undefined)	inactive: -0.18%
O=P1(Nc2nc3ccc(Cl)cc3s2)COc2ccccc2O1 (centres undefined)	inactive: -1.98%
CCOc1ccc(C2=NCC(CBr)S2)cc1 (centres undefined)	inactive: -0.02%
CC(=O)Nc1ccc(Oc2c([N+](=O)[O-])cc([N+](=O)[O-])cc2[N+](=O)[O-])cc1	inactive: -1.53%
Cc1cccc(OCC(=O)OC2CN3CCC2CC3)c1 (centres undefined)	inactive: 0.06%
COc1cc(C(=O)NCC2(N3CCOCC3)CCCCC2)cc(Cl)c1OC(C)C	inactive: 0.35%
COc1cc(C2NCCC3(OCCO3)C2(C)C)cc(OC)c1OC (centres undefined)	inactive: 2.42%
CCOP(=O)(Nc1cccc2ccccc12)OCC	inactive: -0.56%
Cc1ccc(NCCc2c([N+](=O)[O-])cc([N+](=O)[O-])cc2[N+](=O)[O-])cc1	inactive: -0.34%
CCOP1(=S)c2c(C)nn(CCC#N)c2N=C(c2ccccc2F)N1C (centres undefined)	inactive: 2.98%
O=P(Nc1nccs1)(Oc1ccccc1)Oc1ccccc1	inactive: -0.34%
O=P(Nc1nccs1)(c1ccccc1)c1nc2ccccc2s1 (centres undefined)	inactive: -2.53%
O=[N+]([O-])c1ccc2c(c1)nnn2O	inactive: -16.2%
CCOP1(=S)c2c(C)nn(CCC#N)c2N=C(c2ccc(F)cc2)N1C (centres undefined)	inactive: 1.65%
CN(C)C1(CNC(=O)c2ccc(S(C)(=O)=O)cc2)CCCCC1	inactive: 0.28%

Structure (SMILES)	activation
Cc1nn(-c2ccccc2)c2c1P(=O)(N1CCOCC1)N(C)C(c1ccccc1)=N2 (centres undefined)	inactive: 0.99%
CC1CCC(C(C)C)C(OP(=O)(Nc2ccccn2)c2ccccc2)C1 (centres undefined)	inactive: -0.45%
Cc1ccc(OCC(=O)OC2CN3CCC2CC3)cc1 (centres undefined)	inactive: 1.08%
O=P1(Nc2ccc(Br)cn2)COc2ccccc2OC1	inactive: -0.68%
O=P1(Nc2ncccn2)COc2ccccc2OC1	inactive: -0.64%
Clc1n[nH]nc1-c1nn[nH][15n]1	inactive: -0.00911%
O=P1(Nc2ccccn2)COc2ccccc2OC1	inactive: 0.09%
CC1(CBr)Cn2c(nc3ccccc3c2=O)S1 (centres undefined)	inactive: 0.68%
CC(C)/C=N\N=C(\N)N[N+](=O)[O-]	inactive: -0.72%
O=C(COc1ccccc1)OC1CN2CCC1CC2 (centres undefined)	inactive: -0.74%
COP1(=S)c2c(C)nn(CCC#N)c2N=C(c2ccc(F)cc2)N1C (centres undefined)	inactive: 2.94%
CCC(C)N(CC(C)C)C(=S)SC(NC(C)=O)C(Cl)(Cl)Cl (centres undefined)	inactive: 0.07%
Cc1cc(SC(NC(=O)c2ccccc2)C(Cl)(Cl)Cl)nc(C(C)C)n1 (centres undefined)	inactive: 0.46%
O=P(Nc1ccccn1)(c1cccc2ccccc12)c1cccc2ccccc12	inactive: -0.08%
Cc1cc(SC(NC=O)C(Cl)(Cl)Cl)ncn1 (centres undefined)	inactive: -0.33%
Cc1ccc2nc3c(c(C)c2c1)CC(C(Cl)Cl)S3 (centres undefined)	inactive: 0.4%
CC(C)NC(=O)NP(=O)(Oc1ccccc1)Oc1ccccc1	inactive: 0.47%
CCN(CC)C(=S)SC(NC=O)C(Cl)(Cl)Cl (centres undefined)	inactive: -7.93%
O=[N+]([O-])c1cc([N+](=O)[O-])c(-c2ccn[nH]2)s1	inactive: 0.03%
ClCCSc1nnc(-c2cccnc2)o1	inactive: -2.96%
COc1ccc2nc(NP(=O)(c3ccccc3)c3ccccc3)sc2c1	inactive: -0.22%
O=C(OC1CN2CCC1CC2)C12CC3CC(CC(C3)C1)C2 (centres undefined)	inactive: -0.83%
Cc1cc(=O)[nH]c(N[N+](=O)[O-])n1	inactive: 0.23%
Cc1c2c(nc3ccccc13)SC(C(Cl)Cl)C2 (centres undefined)	inactive: -0.09%
COc1ccc(N/C(=N/P(=O)(N2CCOCC2)N2CCOCC2)N2CCOCC2)cc1	inactive: 0.03%
